For this assay, the target named is human glucocorticoid receptor (Homo sapiens, UniProt P04150). The assay is described as follows: Glucocorticoid Receptor Binding Assay (I), fluorescence polarization competitor kit. Conditions: read-out: GR (Ki, nM) (GR Binding Assay (I)); purified human recombinant full-length GR, Fluormone GS Red, 2 h room temperature. For orientation: Polarisation of emitted light reports the rotation of a fluorescent probe.

By UniProt entry, the sequences of proteins in these tests, tags left out.
UniProt P04150, whole entry: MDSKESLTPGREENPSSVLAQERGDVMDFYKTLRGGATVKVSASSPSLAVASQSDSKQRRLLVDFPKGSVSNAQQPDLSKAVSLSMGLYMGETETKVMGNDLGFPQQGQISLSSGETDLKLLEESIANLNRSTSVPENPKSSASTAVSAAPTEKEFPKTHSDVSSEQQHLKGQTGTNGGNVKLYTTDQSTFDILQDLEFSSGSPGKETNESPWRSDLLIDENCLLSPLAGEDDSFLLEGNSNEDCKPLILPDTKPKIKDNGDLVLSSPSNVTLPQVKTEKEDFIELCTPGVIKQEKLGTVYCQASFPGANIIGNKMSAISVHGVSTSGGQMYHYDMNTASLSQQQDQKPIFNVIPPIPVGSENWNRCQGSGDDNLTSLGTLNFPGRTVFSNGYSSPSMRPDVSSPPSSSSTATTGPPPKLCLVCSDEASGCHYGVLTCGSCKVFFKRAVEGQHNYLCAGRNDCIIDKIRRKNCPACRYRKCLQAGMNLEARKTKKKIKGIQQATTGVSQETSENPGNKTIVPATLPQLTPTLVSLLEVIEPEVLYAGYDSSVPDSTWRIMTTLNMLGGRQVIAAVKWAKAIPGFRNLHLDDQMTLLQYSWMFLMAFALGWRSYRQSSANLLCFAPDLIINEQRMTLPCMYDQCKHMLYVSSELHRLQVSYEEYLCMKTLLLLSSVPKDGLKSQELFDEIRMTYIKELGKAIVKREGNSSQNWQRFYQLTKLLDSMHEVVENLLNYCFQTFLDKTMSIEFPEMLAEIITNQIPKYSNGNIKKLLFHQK

The structures appear in SMILES notation.

Broadly, the Ki is a dissociation constant, usually derived from enzyme kinetics or from competition with a known ligand. Regarding `CC(O)(c1ccccc1CN1CCCC1)[C@H]1CCCC2=Cc3c(-c4ccc(F)cc4)ncn3C[C@@]21C` (some centres unmarked), the Ki is 87.1 nM.

Consider `C[C@]12Cn3cnc(-c4ccc(F)cc4)c3C=C1CCC[C@@H]2CCNc1nccs1`, for which the Ki turned out to be 38.3 nM.

For the origin of these results see patent US8309730B2, “Nonsteroidal compounds useful as modulators of glucocorticoid receptor AP-1 and/or NF-kappab acitivity and use thereof” (Bristol-Myers Squibb Company, priority 2007, dated 2012).
